In BindingDB's records for doi:10.1021/ja0296733 (Abbott Laboratories, 2003):

Molecular target: T1, Tyrosine-protein phosphatase non-receptor type 1 [1-298] (Homo sapiens, UniProt P18031)
T1 construct: 1-298
T1 sequence (P18031 whole entry): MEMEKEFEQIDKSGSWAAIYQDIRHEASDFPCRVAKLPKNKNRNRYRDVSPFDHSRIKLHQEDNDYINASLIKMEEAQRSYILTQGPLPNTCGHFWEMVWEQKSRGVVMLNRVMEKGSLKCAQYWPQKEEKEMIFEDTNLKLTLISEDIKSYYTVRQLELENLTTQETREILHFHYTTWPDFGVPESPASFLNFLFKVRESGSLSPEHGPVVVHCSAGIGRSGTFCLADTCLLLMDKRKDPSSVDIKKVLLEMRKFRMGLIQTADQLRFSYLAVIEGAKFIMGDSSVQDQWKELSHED
Assay: PTP1B and TCPTP Inhibition Assay
Conditions: pH 7.5; 22 °C

Compound | Ki [µM]
O=C(O)C(=O)N(c1ccccc1C(=O)O)c1cccc2ccccc12 [2-(Naphthalen-1-yloxalylamino)benzoic Acid] | 39
CC(=O)N[C@@H](Cc1ccc(N(C(=O)C(=O)O)c2ccccc2C(=O)O)c2ccccc12)C(=O)NCCCCCOc1cc2ccccc2cc1C(=O)O [3-({5-[(N-Acetyl-3-{4-[(carboxycarbonyl)(2-carboxyphenyl)amino]-1-naphthyl}-L-alanyl)amino]pentyl}oxy)-2-naphthoic Acid] | 0.022
